Values of other authors, collected in patent US11957727B2, “Prevention of neuroinflammation associated memory loss using nutraceutical compositions” (priority 2020, dated 2024).

Legend:
iNOS = settings: 5 and 10 microM for 6-24 hr, versus macrophages without EGCG
ulcerative colitis (UC) = settings: 50 and 100 mg/kg/day, compared with MD group

## Epigallocatechin-3-gallate [EGCG]
iNOS
  iNOS activity in soluble extracts: significantly lower
Ulcerative colitis (UC)
  disease activity index (DAI) and spleen index (SI): decreased DAIs and SIs
